From ChEMBL document CHEMBL5725441, “Bicyclic heterocycle substituted pyridyl compounds useful as kinase modulators” (2017)

The chains behind the UniProt entries cited, without tags or fusion partners.
UniProt Q9NWZ3, whole entry: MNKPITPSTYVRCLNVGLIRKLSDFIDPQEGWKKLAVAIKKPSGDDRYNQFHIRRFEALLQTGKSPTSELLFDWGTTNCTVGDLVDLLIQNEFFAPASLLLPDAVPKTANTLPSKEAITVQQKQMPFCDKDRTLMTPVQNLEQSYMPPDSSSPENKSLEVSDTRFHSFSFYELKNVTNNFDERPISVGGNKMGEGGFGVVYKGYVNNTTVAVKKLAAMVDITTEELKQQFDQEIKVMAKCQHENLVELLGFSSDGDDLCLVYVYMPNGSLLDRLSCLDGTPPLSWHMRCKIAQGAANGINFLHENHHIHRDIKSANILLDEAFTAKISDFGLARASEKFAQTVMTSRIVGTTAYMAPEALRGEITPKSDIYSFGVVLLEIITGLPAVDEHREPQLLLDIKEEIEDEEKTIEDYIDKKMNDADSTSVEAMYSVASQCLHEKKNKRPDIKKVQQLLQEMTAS

Molecular target: Interleukin-1 receptor-associated kinase 4 (Homo sapiens, UniProt Q9NWZ3)
Test: Inhibition Assay: The assays were performed in U-bottom 384-well plates. […] The reaction was initiated by the combination of IRAK4 with substrates and test compounds. The reaction was incubated at room temperature for 60 min. and terminated by adding 45 μL of 35 mM EDTA to each sample. The reaction mixture was analyzed on the Caliper LABCHIP® 3000 (Caliper, Hopkinton, Mass.) by electrophoretic separation of the fluorescent substrate and phosphorylated product.

| IC50 [nM] | Structure (SMILES) |
| --- | --- |
| 5.9 | CC(C)(O)[C@H](F)CNC(=O)c1cnc(Nc2ccc3nonc3c2)cc1NC1CC1 |
| 9.7 | CCNc1cc(Nc2ccn3nccc3n2)ncc1C(=O)NC[C@@H](F)C(C)(C)O |
